The subject of data set [1] is HeLa cells. The conditions noted are these: cited from earlier work.
A short description of data set [2]: CD measurement of percent helicity. Type of data set: physicochemical.
The test system of data set [3] is HeLa cells. Kind of data set: Cell permeability by fluorescence activated cell sorting. The format is cell-based. To be noted: FACS, 10 μM N-terminally fluorescein-conjugated peptide.

As to “PDI: peptide dual inhibitor of p53-Mdm2/Mdmx interactions, sequence LTFEHYWAQLTS”, the “cell permeability (in words)” value in the data set with HeLa cells [1] is on record as “cell impermeable”. Besides, in data set [2], the percent helicity is 11–13%. For the same substance, in the data set on HeLa cells [3], the “cell penetration relative to the DMSO control (in words)” value was “minimal cell penetration”.

The record behind these values is publication PMC5428881 (Chemical communications (Cambridge, England), 2011).
